Key:
[1] = organism: Homo sapiens; test: Selectivity index, ratio of IC50 for human MAO-A to IC50 for human MA)-B by Amplex Red MAO assay
[2] = molecular target: Amine oxidase [flavin-containing] B (Homo sapiens, UniProt P27338); test: Inhibition of human MAO-B using p-tyramine as substrate assessed as production of H2O2 from p-tyramine incubated for 15 mins by Amplex Red MAO assay

Protein sequences, listed by entry. Tags and fused reporters are not part of them.
UniProt P27338, whole entry: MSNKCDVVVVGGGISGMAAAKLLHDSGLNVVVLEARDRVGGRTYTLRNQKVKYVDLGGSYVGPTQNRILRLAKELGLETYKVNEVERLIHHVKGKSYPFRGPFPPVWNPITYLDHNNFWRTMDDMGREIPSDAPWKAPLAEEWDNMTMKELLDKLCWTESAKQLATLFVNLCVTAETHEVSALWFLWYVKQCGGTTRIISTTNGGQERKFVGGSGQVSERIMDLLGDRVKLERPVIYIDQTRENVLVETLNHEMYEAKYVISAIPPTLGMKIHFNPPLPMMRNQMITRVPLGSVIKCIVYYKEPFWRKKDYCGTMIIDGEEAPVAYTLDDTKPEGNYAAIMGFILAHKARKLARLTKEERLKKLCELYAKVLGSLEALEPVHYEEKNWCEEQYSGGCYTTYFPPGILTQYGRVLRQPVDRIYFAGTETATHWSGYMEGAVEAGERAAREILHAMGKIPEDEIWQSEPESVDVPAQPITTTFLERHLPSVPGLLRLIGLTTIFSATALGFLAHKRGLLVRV

Structure (SMILES) | Ratio IC50 [1] | IC50 [2]
O=C1CCOc2cc(OCCc3ccccc3)ccc21 | 36.2 | 
CC1(C)CC(=O)c2ccc(OCc3ccc(Cl)cc3)cc2O1 | > 2260 | 44.2 nM
Cc1ccc(COc2ccc3c(c2)OCCC3=O)cc1 | > 1100 | 
O=C1CCOc2cc(OCc3ccccc3)ccc21 | > 1740 | 
O=C1CCOc2cc(OCc3ccc(Cl)cc3)ccc21 | > 2990 | 33.5 nM
CC1(C)CC(=O)c2ccc(OCc3ccc(C#N)cc3)cc2O1 | > 1440 | 
CC1(C)CC(=O)c2ccc(OCc3ccccc3F)cc2O1 | > 1450 | 
O=C1CCOc2cc(OCc3cccc(Cl)c3)ccc21 | > 2840 | 
O=C1CCOc2cc(OCc3ccc(Br)cc3)ccc21 | > 4640 | 
N#Cc1ccc(COc2ccc3c(c2)OCCC3=O)cc1 | > 2110 | 
O=C1CCOc2cc(OCCCc3ccccc3)ccc21 | 3.9 | 
O=C1CCOc2cc(OCc3ccccc3F)ccc21 | > 1700 | 
O=C1CCOc2cc(OCc3cccc(Br)c3)ccc21 | > 3310 | 

Other lines, results leading:

Ratio IC50 [1] | IC50 [2] | Structure (SMILES)
 | 10.3 nM | CC1(C)CC(=O)c2ccc(OCc3ccc(F)cc3)cc2O1
> 1080 |  | CC1(C)CC(=O)c2ccc(OCc3cccc(Cl)c3)cc2O1
> 1020 |  | Cc1cccc(COc2ccc3c(c2)OC(C)(C)CC3=O)c1
> 1530 |  | CC1(C)CC(=O)c2ccc(OCc3cccc(F)c3)cc2O1
> 1920 |  | CC1(C)CC(=O)c2ccc(OCc3cccc(Br)c3)cc2O1
> 883 |  | Cc1ccc(COc2ccc3c(c2)OC(C)(C)CC3=O)cc1
> 1030 |  | CC1(C)CC(=O)c2ccc(OCc3ccccc3)cc2O1
> 2200 |  | CC1(C)CC(=O)c2ccc(OCc3ccc(Br)cc3)cc2O1

Source: ChEMBL document CHEMBL3739402, “Chromanones: selective and reversible monoamine oxidase B inhibitors with nanomolar potency” (Medchemcomm, 2015)
